Experimental data from patent US10246453B2, “Benzenesulfonamide compounds and their use as therapeutic agents” (Xenon Pharmaceuticals Inc., priority 2016, dated 2019).

Sequences of proteins named here, by UniProt entry; tags and fusion partners are left off. A line that says so, or that is headed by a name, gives the form on record, which may keep a tag or linker.
UniProt Q9UQD0, whole entry, looked up: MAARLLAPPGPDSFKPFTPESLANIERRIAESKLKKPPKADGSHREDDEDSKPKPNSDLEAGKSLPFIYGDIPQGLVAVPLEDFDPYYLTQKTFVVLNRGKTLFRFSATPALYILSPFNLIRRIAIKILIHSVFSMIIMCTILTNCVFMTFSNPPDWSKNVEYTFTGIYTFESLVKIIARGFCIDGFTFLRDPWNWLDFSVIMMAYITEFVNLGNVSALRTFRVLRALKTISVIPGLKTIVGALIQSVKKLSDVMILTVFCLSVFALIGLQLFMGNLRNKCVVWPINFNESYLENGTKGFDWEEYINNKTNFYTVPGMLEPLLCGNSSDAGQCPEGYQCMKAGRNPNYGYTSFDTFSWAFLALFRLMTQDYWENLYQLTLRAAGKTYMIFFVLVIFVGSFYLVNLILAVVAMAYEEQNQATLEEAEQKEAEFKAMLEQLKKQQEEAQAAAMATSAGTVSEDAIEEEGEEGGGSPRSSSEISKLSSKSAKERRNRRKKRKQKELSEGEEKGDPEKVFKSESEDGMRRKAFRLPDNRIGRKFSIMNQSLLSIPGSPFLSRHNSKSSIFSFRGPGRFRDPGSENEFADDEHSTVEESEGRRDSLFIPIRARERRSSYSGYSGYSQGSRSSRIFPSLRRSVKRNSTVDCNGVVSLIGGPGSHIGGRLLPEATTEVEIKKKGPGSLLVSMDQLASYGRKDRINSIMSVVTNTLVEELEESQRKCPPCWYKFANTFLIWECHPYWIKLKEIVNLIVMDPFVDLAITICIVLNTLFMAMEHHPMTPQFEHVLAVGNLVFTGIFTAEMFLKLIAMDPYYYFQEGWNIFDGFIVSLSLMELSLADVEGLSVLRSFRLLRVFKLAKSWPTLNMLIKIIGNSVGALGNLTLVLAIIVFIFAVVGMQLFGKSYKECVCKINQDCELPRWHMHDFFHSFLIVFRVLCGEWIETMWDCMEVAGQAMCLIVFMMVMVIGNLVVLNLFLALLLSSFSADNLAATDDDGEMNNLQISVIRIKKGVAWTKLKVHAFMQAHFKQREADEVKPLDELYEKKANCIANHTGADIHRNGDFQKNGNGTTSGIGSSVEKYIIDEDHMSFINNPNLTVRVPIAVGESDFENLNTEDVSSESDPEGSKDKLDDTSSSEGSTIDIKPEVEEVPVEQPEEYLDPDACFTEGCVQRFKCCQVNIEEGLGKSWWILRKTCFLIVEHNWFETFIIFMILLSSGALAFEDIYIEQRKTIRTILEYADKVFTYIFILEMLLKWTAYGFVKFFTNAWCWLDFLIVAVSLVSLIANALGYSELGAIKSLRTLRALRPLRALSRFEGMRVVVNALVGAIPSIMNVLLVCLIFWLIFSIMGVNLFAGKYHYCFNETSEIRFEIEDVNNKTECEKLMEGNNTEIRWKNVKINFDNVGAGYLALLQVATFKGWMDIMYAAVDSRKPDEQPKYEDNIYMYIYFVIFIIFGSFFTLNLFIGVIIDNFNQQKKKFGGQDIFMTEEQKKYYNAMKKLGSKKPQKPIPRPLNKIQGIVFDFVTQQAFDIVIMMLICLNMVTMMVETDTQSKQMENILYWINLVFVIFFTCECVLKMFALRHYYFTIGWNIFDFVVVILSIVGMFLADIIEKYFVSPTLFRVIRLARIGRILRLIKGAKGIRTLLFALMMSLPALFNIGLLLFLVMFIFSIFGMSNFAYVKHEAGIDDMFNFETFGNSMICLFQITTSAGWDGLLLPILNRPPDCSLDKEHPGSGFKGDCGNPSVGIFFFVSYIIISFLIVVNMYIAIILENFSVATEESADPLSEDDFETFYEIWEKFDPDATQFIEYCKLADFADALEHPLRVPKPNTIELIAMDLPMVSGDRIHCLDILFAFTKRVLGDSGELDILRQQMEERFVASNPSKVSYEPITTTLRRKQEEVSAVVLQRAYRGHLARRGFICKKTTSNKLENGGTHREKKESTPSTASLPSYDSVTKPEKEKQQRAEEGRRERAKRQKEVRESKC
UniProt Q14524, other isoform, or with tags, fused parts or gaps: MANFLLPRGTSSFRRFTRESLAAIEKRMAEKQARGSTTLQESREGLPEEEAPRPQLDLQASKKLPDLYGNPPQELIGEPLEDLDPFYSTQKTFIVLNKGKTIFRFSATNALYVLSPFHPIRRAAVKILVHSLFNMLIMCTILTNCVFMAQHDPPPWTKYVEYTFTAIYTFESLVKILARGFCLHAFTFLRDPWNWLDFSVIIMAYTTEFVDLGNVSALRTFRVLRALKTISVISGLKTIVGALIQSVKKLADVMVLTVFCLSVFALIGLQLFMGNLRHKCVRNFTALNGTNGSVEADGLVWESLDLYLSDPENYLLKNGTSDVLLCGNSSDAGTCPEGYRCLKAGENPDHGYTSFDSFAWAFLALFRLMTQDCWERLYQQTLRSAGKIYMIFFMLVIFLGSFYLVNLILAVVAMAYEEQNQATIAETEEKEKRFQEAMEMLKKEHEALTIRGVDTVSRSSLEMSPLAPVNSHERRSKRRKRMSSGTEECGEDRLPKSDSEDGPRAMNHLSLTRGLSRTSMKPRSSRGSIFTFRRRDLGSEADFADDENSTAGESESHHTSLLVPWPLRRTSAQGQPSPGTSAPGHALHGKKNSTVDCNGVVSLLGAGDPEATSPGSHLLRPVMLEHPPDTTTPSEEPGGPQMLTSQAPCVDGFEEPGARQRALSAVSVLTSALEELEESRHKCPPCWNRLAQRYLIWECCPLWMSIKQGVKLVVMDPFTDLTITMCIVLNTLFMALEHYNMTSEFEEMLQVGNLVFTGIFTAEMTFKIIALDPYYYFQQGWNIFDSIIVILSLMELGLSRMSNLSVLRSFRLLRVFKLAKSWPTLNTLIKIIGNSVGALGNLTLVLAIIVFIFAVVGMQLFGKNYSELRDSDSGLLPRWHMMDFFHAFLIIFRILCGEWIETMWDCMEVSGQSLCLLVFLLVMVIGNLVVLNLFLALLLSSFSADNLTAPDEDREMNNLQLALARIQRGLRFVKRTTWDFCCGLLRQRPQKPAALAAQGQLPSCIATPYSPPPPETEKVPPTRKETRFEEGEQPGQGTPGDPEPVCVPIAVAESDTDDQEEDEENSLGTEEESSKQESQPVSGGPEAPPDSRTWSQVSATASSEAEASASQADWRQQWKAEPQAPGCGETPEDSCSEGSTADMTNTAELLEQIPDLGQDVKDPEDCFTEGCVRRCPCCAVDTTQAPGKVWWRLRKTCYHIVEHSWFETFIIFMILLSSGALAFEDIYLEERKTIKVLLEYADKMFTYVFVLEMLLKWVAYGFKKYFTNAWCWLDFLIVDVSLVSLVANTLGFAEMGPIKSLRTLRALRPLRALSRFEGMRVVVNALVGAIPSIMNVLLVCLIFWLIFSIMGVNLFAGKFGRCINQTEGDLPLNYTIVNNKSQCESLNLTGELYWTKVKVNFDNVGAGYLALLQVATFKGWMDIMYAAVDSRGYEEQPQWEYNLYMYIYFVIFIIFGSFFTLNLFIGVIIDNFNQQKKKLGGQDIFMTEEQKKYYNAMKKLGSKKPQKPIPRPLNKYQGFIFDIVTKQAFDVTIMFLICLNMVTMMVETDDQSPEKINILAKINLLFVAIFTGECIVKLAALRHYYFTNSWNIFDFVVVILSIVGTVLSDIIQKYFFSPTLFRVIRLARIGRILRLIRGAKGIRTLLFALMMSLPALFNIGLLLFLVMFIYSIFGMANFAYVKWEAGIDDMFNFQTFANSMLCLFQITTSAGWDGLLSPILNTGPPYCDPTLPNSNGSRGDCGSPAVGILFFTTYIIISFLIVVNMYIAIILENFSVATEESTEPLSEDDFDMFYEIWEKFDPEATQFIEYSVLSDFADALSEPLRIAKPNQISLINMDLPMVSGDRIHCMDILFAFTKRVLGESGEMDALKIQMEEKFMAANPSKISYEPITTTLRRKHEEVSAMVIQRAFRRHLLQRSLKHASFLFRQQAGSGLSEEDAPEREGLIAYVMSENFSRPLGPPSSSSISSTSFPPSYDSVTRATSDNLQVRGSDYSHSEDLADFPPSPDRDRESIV

Legend:
[1] = target: NaV1.6 (Homo sapiens (Human), UniProt Q9UQD0); assay: Sodium Influx Assay (Flux), NaV1.6
[2] = target: T1, NaV1.5 (Homo sapiens (Human), UniProt Q14524); assay: Sodium Influx Assay (Flux), NaV1.5; details: read-out: Flux NaV1.5 IC50; Trex HEK293 cells, ANG2 dye; arithmetic mean
[3] = target: T2, NaV1.1 (Homo sapiens (Human), UniProt P35498); assay: Sodium Influx Assay (Flux), NaV1.1; type: cell-based; details: Trex HEK293 cells, ANG2 dye; arithmetic mean
[4] = target: T2, NaV1.1; assay: Electrophysiological Assay (EP), patch voltage clamp, NaV1.1; type: cell-based; details: HEK-293 cells, whole-cell patch clamp, inactivated state; arithmetic mean
[5] = target: T1, NaV1.5; assay: cell-based
[6] = target: T1, NaV1.5; assay: Electrophysiological Assay (EP), patch voltage clamp, NaV1.5; type: cell-based; details: HEK-293 cells, whole-cell patch clamp, inactivated state; arithmetic mean

SMILES | IC50 [2] | IC50 [3] | other results
CC1(Oc2cc(F)c(S(=O)(=O)Nc3cscn3)cc2Cl)CCN(Cc2ccccc2)C1 (racemic) [Example 310, rac-4-((1-benzyl-3-methylpyrrolidin-3-yl)oxy)-5-chloro-2-fluoro-N-(thiazol-4-yl)benzenesulfonamide] | – | – | IC50 [1]: 2.38 µM
O=S(=O)(Nc1cscn1)c1cc(Cl)c(OC2CCN(Cc3ccccc3)CC2)cc1F [Example 238, 4-((1-benzylpiperidin-4-yl)oxy)-5-chloro-2-fluoro-N-(thiazol-4-yl)benzenesulfonamide 2,2,2-trifluoroacetate] | 13 µM | – | –
COc1cccc(CN2CC[C@H](N(C)c3cc(F)c(S(=O)(=O)Nc4cscn4)cc3Cl)C2)c1 [Example 219, (S)-5-chloro-2-fluoro-4-((1-(3-methoxybenzyl)pyrrolidin-3-yl)(methyl)amino)-N-(thiazol-4-yl)benzenesulfonamide] | 13 µM | – | –
C[C@@H]1CN(Cc2ccccc2)CC[C@@H]1Oc1ccc(S(=O)(=O)Nc2nccs2)cc1Cl (relative stereo) [Example 8A, 4-((cis-1-benzyl-3-methylpiperidin-4-yl)oxy)-3-chloro-N-(thiazol-2-yl)benzenesulfonamide] | – | 5.01 µM | IC50 [1]: 1.09 µM
Cc1cc(S(=O)(=O)Nc2cscn2)c(F)cc1N(C)[C@@H]1CCN(Cc2ccccc2)C1 [Example 272, (R)-4-((1-benzylpyrrolidin-3-yl)(methyl)amino)-2-fluoro-5-methyl-N-(thiazol-4-yl)benzenesulfonamide] | 18.2 µM | 11.7 µM | –
C[C@@H](c1ccccc1)N1CCC(Oc2ccc(S(=O)(=O)Nc3nccs3)cc2Cl)CC1 [Example 58, (S)-3-chloro-4-((1-(1-phenylethyl)piperidin-4-yl)oxy)-N-(thiazol-2-yl)benzenesulfonamide 2,2,2-trifluoroacetate] | – | 5.14 µM | IC50 [4]: 9.14 µM
C[C@@H]1CN(Cc2ccccc2F)CC[C@@H]1Oc1ccc(S(=O)(=O)Nc2nccs2)cc1Cl (relative stereo) [Example 10A, 3-chloro-4-((cis-1-(2-fluorobenzyl)-3-methylpiperidin-4-yl)oxy)-N-(thiazol-2-yl)benzenesulfonamide] | – | 4.66 µM | –
C[C@@H]1CN(Cc2ccccc2F)CC[C@H]1Oc1ccc(S(=O)(=O)Nc2nccs2)cc1Cl (relative stereo) [Example 10B, 3-chloro-4-((trans-1-(2-fluorobenzyl)-3-methylpiperidin-4-yl)oxy)-N-(thiazol-2-yl)benzenesulfonamide] | – | 5.08 µM | IC50 [5]: 8.56 µM
Cc1cc(S(=O)(=O)Nc2cscn2)c(F)cc1N(C)[C@H]1CCN(Cc2ccccc2)C1 [Example 101, (S)-4-((1-benzylpyrrolidin-3-yl)(methyl)amino)-2-fluoro-5-methyl-N-(thiazol-4-yl)benzenesulfonamide formate] | – | – | IC50 [6]: > 30 µM
C[C@@H]1CN(Cc2ccccc2)CC[C@H]1Oc1ccc(S(=O)(=O)Nc2nccs2)cc1Cl (relative stereo) [Example 8B, 4-((trans-1-benzyl-3-methylpiperidin-4-yl)oxy)-3-chloro-N-(thiazol-2-yl)benzenesulfonamide] | – | 4.31 µM | IC50 [5]: 14.7 µM
C[C@H](c1ccccc1)N1CCC(Oc2ccc(S(=O)(=O)Nc3nccs3)cc2Cl)CC1 [Example 55, (R)-3-chloro-4-((1-(1-phenylethyl)piperidin-4-yl)oxy)-N-(thiazol-2-yl)benzenesulfonamide 2,2,2-trifluoroacetate] | 9.83 µM | 11.8 µM | IC50 [4]: > 10 µM
CC(c1ccccc1)N1CCC(Oc2ccc(S(=O)(=O)Nc3nccs3)cc2Cl)CC1 (stereo not shown) [Example 52, 3-chloro-4-((1-(1-phenylethyl)piperidin-4-yl)oxy)-N-(thiazol-2-yl)benzenesulfonamide] | – | 8.37 µM | –
C[C@@]1(Oc2cc(F)c(S(=O)(=O)Nc3cscn3)cc2Cl)CCN(Cc2ccccc2)C1 [Example 311B, (R)-4-((1-benzyl-3-methylpyrrolidin-3-yl)oxy)-5-chloro-2-fluoro-N-(thiazol-4-yl)benzenesulfonamide] | – | – | IC50 ([1]; read-out: Flux NaV1.6 IC50, Trex HEK293 cells, ANG2 dye, arithmetic mean): 1.3 µM
Cc1cc(S(=O)(=O)Nc2cscn2)c(F)cc1N(C)[C@H]1CCN(Cc2ccccc2O)C1 [Example 113, (S)-2-fluoro-4-((1-(2-hydroxybenzyl)-pyrrolidin-3-yl)(methyl)amino)-5-methyl-N-(thiazol-4-yl)benzenesulfonamide] | 13 µM | – | –
Cc1cc(S(=O)(=O)Nc2cscn2)ccc1N(C)[C@H]1CCN(Cc2ccccc2)C1 [Example 284, (S)-4-((1-benzylpyrrolidin-3-yl)(methyl)amino)-3-methyl-N-(thiazol-4-yl)benzenesulfonamide 2,2,2-trifluoroacetate] | 13 µM | – | –

Counter-ions that a name gives are not always drawn. Like-named read-outs stand apart in the source and are kept apart here.
